# Yeast mating assay 2: variants of the scFv Ab-95

Antigen: PDVDLGDISGINAS, a 14-residue peptide of the SARS-CoV-2 spike HR2 region.

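The starting antibody came from a phage panning campaign against this peptide. Library AAYL52 holds single substitutions and randomly drawn double and triple substitutions in the CDRs. Affinity was read by AlphaSeq, a pooled yeast mating assay with surface-displayed partners. Mating (16 h, 30 °C) was followed by selection of diploids and sequencing of their barcodes. The ratio of observed to expected reads was calibrated, replicate by replicate, on BCL2-family standards whose Kd was known from biolayer interferometry. There are three technical replicates.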

Ab-95 is the parent antibody, in scFv form: VH, then a (GGGGS)3 linker, then VL. The heavy chain is unchanged in all variants.
VH: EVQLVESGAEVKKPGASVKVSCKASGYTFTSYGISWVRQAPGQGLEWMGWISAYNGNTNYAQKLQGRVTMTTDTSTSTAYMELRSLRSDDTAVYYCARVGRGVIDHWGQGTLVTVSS
VL: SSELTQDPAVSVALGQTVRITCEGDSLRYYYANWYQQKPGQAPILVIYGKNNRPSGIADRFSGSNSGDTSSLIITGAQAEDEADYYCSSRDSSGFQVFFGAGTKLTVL

Each variant is given by its three light chain CDRs, as the data file delimits them; those of the parent are EGDSLRYYYAN, GKNNRPS, SSRDSSGFQVF.
Affinities are written as log10 Kd with Kd in nM; a lower number is a better binder.
"nd" means that the variant was in the library but no mating with the target was seen in that replicate; the authors take this as a sign of poor binding, and no number exists.
Three control strains display no target. For library AAYL52, 28% of the pairings with them gave a signal, with a median of 3.91 and one signal in twenty below 2.90, so weak values seen in few replicates may be background. The control count says in how many pairings with the empty strains this scFv gave a signal, with their mean in brackets.

{"CDR-L1": "EGCSLRYYYAN", "CDR-L2": "GKNNRPS", "CDR-L3": "SSRDSSGAQVF", "log10 Kd (nM) by replicate": "3.69 nd 4.25", "empty controls": "2 of 9 (3.52)"}
{"CDR-L1": "EGDSLRYDYAN", "CDR-L2": "GKNNRLS", "CDR-L3": "SSRASSGFQVF", "log10 Kd (nM) by replicate": "3.32 2.34 nd", "empty controls": "4 of 9 (3.72)"}
{"CDR-L1": "EGDSLRYHYAN", "CDR-L2": "GKNNRPS", "CDR-L3": "SKRDSSGIQVF", "log10 Kd (nM) by replicate": "1.60 1.32 0.90", "empty controls": "5 of 9 (3.36)"}
{"CDR-L1": "EGDSLIYYYLN", "CDR-L2": "GKNNRPS", "CDR-L3": "SSRTSSGFQVF", "log10 Kd (nM) by replicate": "3.95 4.32 nd", "empty controls": "1 of 9 (4.19)"}
{"CDR-L1": "GGDSLRLYYAN", "CDR-L2": "GKNNRPS", "CDR-L3": "SSRDSSMFQVF", "log10 Kd (nM) by replicate": "nd 3.41 4.16", "empty controls": "2 of 9 (3.99)"}
{"CDR-L1": "YGDSCRYYYAN", "CDR-L2": "GKNNRPS", "CDR-L3": "SWRDSSGFQVF", "log10 Kd (nM) by replicate": "nd 3.90 nd", "empty controls": "3 of 9 (4.29)"}
{"CDR-L1": "EGDSLHIYYYN", "CDR-L2": "GKNNRPS", "CDR-L3": "SSRDSSGFQVF", "log10 Kd (nM) by replicate": "nd nd nd", "empty controls": "2 of 9 (4.64)"}
{"CDR-L1": "EGDSLRYYYAN", "CDR-L2": "MKNNRPS", "CDR-L3": "SSRDSSGFQRF", "log10 Kd (nM) by replicate": "4.49 5.64 nd", "empty controls": "3 of 9 (3.69)"}
{"CDR-L1": "EGDSLRIYYAN", "CDR-L2": "GKNNRPK", "CDR-L3": "SSFDSSGFQVF", "log10 Kd (nM) by replicate": "4.62 nd nd", "empty controls": "2 of 9 (4.94)"}
{"CDR-L1": "EGDSLRYYKAN", "CDR-L2": "GKNNRPS", "CDR-L3": "SSRDSLGEQVF", "log10 Kd (nM) by replicate": "nd nd nd", "empty controls": "2 of 9 (3.54)"}
{"CDR-L1": "PGDSLRYYKAN", "CDR-L2": "GRNNRPS", "CDR-L3": "SSRDSSGFQVF", "log10 Kd (nM) by replicate": "nd nd nd", "empty controls": "0 of 9"}
{"CDR-L1": "EGDSLRYYYAD", "CDR-L2": "EKNNRPA", "CDR-L3": "SSRDSSGFQVF", "log10 Kd (nM) by replicate": "nd nd nd", "empty controls": "5 of 9 (3.27)"}
{"CDR-L1": "EGDSLRYYYAN", "CDR-L2": "GKTNRPS", "CDR-L3": "SSLDSSGFQVF", "log10 Kd (nM) by replicate": "3.46 nd nd", "empty controls": "1 of 9 (2.77)"}
{"CDR-L1": "EGDSMRYYYAN", "CDR-L2": "GKNNRPS", "CDR-L3": "SSRDSIGFQQF", "log10 Kd (nM) by replicate": "3.15 3.04 nd", "empty controls": "1 of 9 (3.22)"}
{"CDR-L1": "EGTSLRYYYAN", "CDR-L2": "GKNNRPS", "CDR-L3": "SYRDSSIFQVF", "log10 Kd (nM) by replicate": "4.77 nd 2.86", "empty controls": "2 of 9 (4.78)"}
{"CDR-L1": "EGDSLRYYYAN", "CDR-L2": "GTNNRPT", "CDR-L3": "SSRDSMGFQVF", "log10 Kd (nM) by replicate": "3.58 nd nd", "empty controls": "1 of 9 (4.07)"}
{"CDR-L1": "SGDSLRYYYAM", "CDR-L2": "GKNNRPS", "CDR-L3": "SSRDSSGFQMF", "log10 Kd (nM) by replicate": "nd 4.79 3.76", "empty controls": "4 of 9 (4.56)"}
{"CDR-L1": "EGDSLRYYYAN", "CDR-L2": "GKNNRPI", "CDR-L3": "SVRDSSGFQVG", "log10 Kd (nM) by replicate": "2.57 3.27 2.35", "empty controls": "1 of 9 (4.95)"}
{"CDR-L1": "EGDSTRYYYAN", "CDR-L2": "GKNNRPQ", "CDR-L3": "SSRDSSGMQVF", "log10 Kd (nM) by replicate": "2.47 3.94 3.51", "empty controls": "0 of 9"}
{"CDR-L1": "EGDSLRYYYRN", "CDR-L2": "GKNNRPF", "CDR-L3": "SSRDSSGFQVF", "log10 Kd (nM) by replicate": "3.73 4.37 3.99", "empty controls": "6 of 9 (4.01)"}

In this assay the parent's reference entry averaged 2.31; its copy inside this library read 2.25.

Data: MIT Lincoln Laboratory AlphaSeq set, Engelhart et al. 2022, doi:10.1038/s41597-022-01779-4, as distributed in FLAb.